Some of these compounds have results that are not shown, active ones among them.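 Test compounds were applied to cells in 96-well plates for 48 hours at 5 doses. GI50 = concentration required for 50% inhibition of growth. At the TGI there is no net growth.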
Assays:
Assay in all cases: growth of human tumour cells (NCI), 48 h
NCI-H23 lung = system: NCI-H23 lung
NCI-H460 lung = system: NCI-H460 lung
NCI/ADR-RES ovarian = system: NCI/ADR-RES ovarian
OVCAR-3 ovarian = system: OVCAR-3 ovarian
OVCAR-4 ovarian = system: OVCAR-4 ovarian
OVCAR-5 ovarian = system: OVCAR-5 ovarian
OVCAR-8 ovarian = system: OVCAR-8 ovarian
PC-3 prostate = system: PC-3 prostate
RPMI-8226 leukemia = system: RPMI-8226 leukemia
RXF 393 renal = system: RXF 393 renal
SF-268 CNS = system: SF-268 CNS
SF-295 CNS = system: SF-295 CNS
SF-539 CNS = system: SF-539 CNS
SK-MEL-2 melanoma = system: SK-MEL-2 melanoma
SK-MEL-28 melanoma = system: SK-MEL-28 melanoma
SK-MEL-5 melanoma = system: SK-MEL-5 melanoma
SK-OV-3 ovarian = system: SK-OV-3 ovarian
SN12C renal = system: SN12C renal
SNB-19 CNS = system: SNB-19 CNS
SNB-75 CNS = system: SNB-75 CNS
SR leukemia = system: SR leukemia
SW-620 colon = system: SW-620 colon
T-47D breast = system: T-47D breast
TK-10 renal = system: TK-10 renal
U251 CNS = system: U251 CNS
UACC-257 melanoma = system: UACC-257 melanoma
UACC-62 melanoma = system: UACC-62 melanoma
UO-31 renal = system: UO-31 renal

CC#CC(O)(C(=O)OC1CCN(C)CC1)C(C)C (stereo unspecified)
GI50 (NCI-H23 lung): > 100 µM | TGI (NCI-H23 lung): > 100 µM | GI50 (NCI-H460 lung): > 100 µM | TGI (NCI-H460 lung): > 100 µM | GI50 (NCI/ADR-RES ovarian): > 100 µM | TGI (NCI/ADR-RES ovarian): > 100 µM | GI50 (OVCAR-3 ovarian): > 100 µM | TGI (OVCAR-3 ovarian): > 100 µM | GI50 (OVCAR-4 ovarian): > 100 µM | TGI (OVCAR-4 ovarian): > 100 µM | GI50 (OVCAR-5 ovarian): > 100 µM | TGI (OVCAR-5 ovarian): > 100 µM | GI50 (OVCAR-8 ovarian): > 100 µM | TGI (OVCAR-8 ovarian): > 100 µM | GI50 (PC-3 prostate): > 100 µM | TGI (PC-3 prostate): > 100 µM | GI50 (RPMI-8226 leukemia): > 100 µM | TGI (RPMI-8226 leukemia): > 100 µM | GI50 (RXF 393 renal): > 100 µM | TGI (RXF 393 renal): > 100 µM | GI50 (SF-268 CNS): > 100 µM | TGI (SF-268 CNS): > 100 µM | GI50 (SF-295 CNS): > 100 µM | TGI (SF-295 CNS): > 100 µM | GI50 (SF-539 CNS): > 100 µM | TGI (SF-539 CNS): > 100 µM | GI50 (SK-MEL-2 melanoma): > 100 µM | TGI (SK-MEL-2 melanoma): > 100 µM | GI50 (SK-MEL-28 melanoma): > 100 µM | TGI (SK-MEL-28 melanoma): > 100 µM | GI50 (SK-MEL-5 melanoma): > 100 µM | TGI (SK-MEL-5 melanoma): > 100 µM | GI50 (SK-OV-3 ovarian): > 100 µM | TGI (SK-OV-3 ovarian): > 100 µM | GI50 (SN12C renal): > 100 µM | TGI (SN12C renal): > 100 µM | GI50 (SNB-19 CNS): > 100 µM | TGI (SNB-19 CNS): > 100 µM | GI50 (SNB-75 CNS): > 100 µM | TGI (SNB-75 CNS): > 100 µM | GI50 (SR leukemia): > 100 µM | TGI (SR leukemia): > 100 µM | GI50 (SW-620 colon): > 100 µM | TGI (SW-620 colon): > 100 µM | GI50 (T-47D breast): > 100 µM | TGI (T-47D breast): > 100 µM | GI50 (TK-10 renal): > 100 µM | TGI (TK-10 renal): > 100 µM | GI50 (U251 CNS): > 100 µM | TGI (U251 CNS): > 100 µM | GI50 (UACC-257 melanoma): > 100 µM | TGI (UACC-257 melanoma): > 100 µM | GI50 (UACC-62 melanoma): > 100 µM | TGI (UACC-62 melanoma): > 100 µM | GI50 (UO-31 renal): > 100 µM | TGI (UO-31 renal): > 100 µM

From PubChem BioAssay (NCI)
